Test results taken from paper PMC4516563 (Biochimica et biophysica acta, 2015).

Assays:
Details in all cases: disc diffusion, 30-45 ug per disc, 7-10 days; result in words
[1] = test system: human colon HCT116
[2] = test system: human brain U251N
[3] = test system: human pancreatic cancer PANC1

iso-kahalalide F [isoKF]
minimal: cytotoxicity based on the zone assay, HCT-116 [1] | cytotoxicity based on the zone assay, U251N [2] | cytotoxicity based on the zone assay, PANC-1 [3]
